Consider 43 compounds from PubChem BioAssay AID1203 (The Scripps Research Institute Molecular Screening Center, 2008).

The entries are a selection whose mix differs from that of the whole data set. The source made the active and inactive calls.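 The calls were made as follows: active = activation above the mean across all tested compounds plus 3 SD, cutoff set per campaign (cut at about 5.5% in these data); inactive = the rest.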

This assay in a line: Hsp70 promoter-driven reporter induction – cell-based, HeLa, Hsp70 promoter luciferase, luminescence, 10 µM, primary screen (AID 1203).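 Also: 100% = MG132 at 30 µM as the positive control and 0% = DMSO.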 The conditions noted are these: at 10 µM, active compounds read high, scaled: vehicle 0, proteasome-inhibitor control 100%.
Take `COc1ccccc1OP(C)(=O)Nc1cc(Cl)ccc1C` (stereo not drawn): the activation was inactive: 0.08%.

Regarding `Cc1cc(C)cc(OP(C)(N)=O)c1` (stereo not drawn), the activation was inactive: 0.13%.

As to `CCOC(=O)c1ccc(NP(C)(=O)Oc2ccccc2)cc1` (stereo not drawn), the activation was inactive: -0.02%.

For the compound `Cc1ccc(NP(C)(=O)Oc2ccccc2)c(C)c1` (stereo not drawn), the activation was inactive: -0.39%.

In the case of `COc1ccccc1OP(C)(=O)Nc1ccc(C)cc1` (stereo not drawn), the activation is inactive: 0.24%.

As for `COc1ccc(OP(C)(=O)Nc2ccccc2Br)cc1` (stereo not drawn), the activation is inactive: -0.31%.

Take `COc1ccccc1OP(C)(=O)Nc1ccc(C)c(C)c1` (stereo not drawn): the activation was inactive: 0.1%.

Turning to `Cc1cc(C)cc(OP(C)(=O)Nc2cccc(C(F)(F)F)c2)c1` (stereo not drawn), the activation is inactive: -0.19%.

For the compound `CP(=O)(OCCOc1ccccc1)OCCOc1ccccc1`, the activation is inactive: 0.1%.

For `CP(=O)(Nc1ccc(Cl)cc1Cl)Oc1ccccc1` (stereo not drawn), the activation was inactive: -0.22%.

In the case of `Cc1nc2ccc3ccccc3c2o1.O=[N+]([O-])c1cc([N+](=O)[O-])c(O)c([N+](=O)[O-])c1`, the activation is inactive: 0.37%.

For the compound `CN(C)CCOC(=O)C(O)(c1ccccc1)C1CCCC1` (stereo not drawn), the activation is inactive: -0.17%.

On to `COc1ccc(OP(C)(=O)Nc2ccccn2)cc1` (stereo not drawn), for which the activation is inactive: 0.02%.

As to `CCc1ccc(OP(C)(=O)O)cc1`, the activation was inactive: -0.09%.

As for `COc1ccccc1OP(C)(=O)Nc1ccc(C)cc1C` (stereo not drawn), the activation was inactive: -0.01%.

Take `CP(=O)(Nc1ccccn1)Oc1ccccc1` (stereo not drawn): the activation was inactive: 0%.

In the case of `O=[N+]([O-])c1cc([N+](=O)[O-])c(Nc2ccccn2)c([N+](=O)[O-])c1`, the activation was inactive: -0.56%.

Turning to `Cc1c(NP(C)(=O)Oc2ccc(C(C)C)cc2)c(=O)n(-c2ccccc2)n1C` (stereo not drawn), the activation is inactive: -0.45%.

For `CCc1ccc(OP(C)(=O)Nc2cccnc2)cc1` (stereo not drawn), the activation is inactive: 0.06%.

Regarding `CP(=O)(Oc1ccccc1)N1CCOC1=O` (stereo not drawn), the activation is inactive: -0.25%.

Take `COc1ccccc1OP(C)(=O)Nc1c(C)n(C)n(-c2ccccc2)c1=O` (stereo not drawn): the activation is inactive: -0.64%.

In the case of `COc1ccc(OP(C)(=O)Nc2ccc(Br)cc2)cc1` (stereo not drawn), the activation is inactive: -0.32%.

Regarding `CCN(CC)CC(O)COC(=O)C(O)(c1ccccc1)C1CCCCC1` (stereo not drawn), the activation was inactive: -0.04%.

As for `CN(C)C(=O)c1c([N+](=O)[O-])cc([N+](=O)[O-])cc1[N+](=O)[O-]`, the activation is inactive: -0.09%.

Take `CP(=O)(Nc1ccc(Cl)cc1)Oc1ccc(F)cc1` (stereo not drawn): the activation is inactive: 0.11%.

As for `CC(C)(C)c1ccc(OP(C)(=O)O)cc1`, the activation was inactive: 0.29%.

For the compound `COc1ccccc1OP(C)(=O)Nc1ccccc1Br` (stereo not drawn), the activation was inactive: 0.36%.

Take `CP(=O)(OC12CC3CC(CC(C3)C1)C2)OC12CC3CC(CC(C3)C1)C2`: the activation was inactive: -0.23%.

Regarding `CCOC(=O)c1ccc(NP(C)(=O)Oc2ccc(Cl)cc2)cc1` (stereo not drawn), the activation is inactive: -0.21%.

As to `COc1ccc(NP(C)(=O)Oc2ccccc2OC)cc1` (stereo not drawn), the activation was inactive: 0.02%.

Regarding `CN(C)CCOC(=O)C(O)(c1ccccc1)C1CCCCC1` (stereo not drawn), the activation is inactive: -0.52%.

On to `COc1ccc(OP(C)(=O)Nc2cccc(Br)c2)cc1` (stereo not drawn), for which the activation is inactive: -0.08%.

Take `O=[N+]([O-])c1cc([N+](=O)[O-])c(NCC2CCS(=O)(=O)C2)c([N+](=O)[O-])c1` (stereo not drawn): the activation was inactive: 0.07%.

On to `CCOP(C)(=S)SCC(=O)NC(C)(CC)C(=O)O` (stereo not drawn), for which the activation is inactive: -0.45%.

With `Cc1ccccc1NP(C)(=O)Nc1ccccc1C`, the activation is inactive: 0.04%.

For `CP(=O)(Nc1ccc2c(c1)OCCO2)Oc1ccccc1` (stereo not drawn), the activation is inactive: -0.23%.

For the compound `CC(C)c1ccc(OP(C)(=O)Nc2ccc(SC(F)(F)F)cc2)cc1` (stereo not drawn), the activation was inactive: -0.25%.

For `CP(=O)(Nc1ccccc1F)Oc1ccccc1` (stereo not drawn), the activation was inactive: -0.01%.

In the case of `O=C(OCCN1CCN(CCOCc2ccccc2)CC1)C(O)(c1ccccc1)c1ccccc1`, the activation is inactive: -0.25%.

For `COc1ccc(OP(C)(=O)Nc2ccc(SC(F)(F)F)cc2)cc1` (stereo not drawn), the activation was inactive: -0.17%.

Turning to `CCOC(=O)c1ccc(NP(C)(=O)Oc2ccc(F)cc2)cc1` (stereo not drawn), the activation was inactive: -0.59%.

In the case of `CP(=O)(Nc1ccccc1)Oc1ccc(F)cc1` (stereo not drawn), the activation is inactive: 0.01%.

In the case of `CCN(CC)CCCOC(=O)C(O)(c1ccccc1)C1CCCCC1` (stereo not drawn), the activation is inactive: -0.08%.
